This test addresses CCR1 (Homo sapiens, UniProt P32246). The test is described as follows: cell-based.

By UniProt entry, the sequences of proteins in these tests, tags left out. Where a name states a change or a piece, a line headed by the entry shows the natural chain unless it says otherwise.
UniProt P32246: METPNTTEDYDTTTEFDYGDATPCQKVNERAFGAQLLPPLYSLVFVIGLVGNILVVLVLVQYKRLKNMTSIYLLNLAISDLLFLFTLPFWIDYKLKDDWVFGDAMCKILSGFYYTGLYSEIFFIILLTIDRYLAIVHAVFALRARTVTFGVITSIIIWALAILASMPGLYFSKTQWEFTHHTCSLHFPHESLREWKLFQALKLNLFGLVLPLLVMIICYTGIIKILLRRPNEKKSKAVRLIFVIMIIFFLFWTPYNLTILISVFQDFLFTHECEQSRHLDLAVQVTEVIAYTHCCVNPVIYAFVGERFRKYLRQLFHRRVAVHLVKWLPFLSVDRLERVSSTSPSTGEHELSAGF

Bounds are passed on as bounds.

The IC50 is the concentration that gives 50% inhibition. The low end stands for higher potency, the high end for lower potency. Regarding `CC(C)(O)CC[C@H](C[C@H](O)[C@H](Cc1cccc(F)c1)NC(=O)c1cnc2ccccc2n1)C(N)=O` [Ia-3, Quinoxaline-2-carboxylic acid [4-carbamoyl-1-(3-fluorobenzyl)-2,7-dihydroxy-7-methyl-octyl]-amide], the IC50 was below 25 µM.

The record behind these values is patent US20040072834A1, “Crystal forms of quinoxaline-2-carboxylic acid [4-carbamoyl-1-(3-fluorobenzyl)-2,7-dihydroxy-7-methyl-octyl]-amide” (Pfizer Inc., priority 2002, published 2004).
